Results reported in PubChem BioAssay AID1777 (Sanford-Burnham Center for Chemical Genomics, 2009).
The other results are listed elsewhere or left out. Results with a measured potency or affinity are listed apart. Activity calls are given as the source filed them. Rule as the data show it: active = activation above about 50% (passing the limit was not always enough); inactive = the rest.

Sequences of proteins named here, by UniProt entry; tags and fusion partners are left off. A change or cut given only in a name is not applied to a line headed by its entry.
UniProt P41145: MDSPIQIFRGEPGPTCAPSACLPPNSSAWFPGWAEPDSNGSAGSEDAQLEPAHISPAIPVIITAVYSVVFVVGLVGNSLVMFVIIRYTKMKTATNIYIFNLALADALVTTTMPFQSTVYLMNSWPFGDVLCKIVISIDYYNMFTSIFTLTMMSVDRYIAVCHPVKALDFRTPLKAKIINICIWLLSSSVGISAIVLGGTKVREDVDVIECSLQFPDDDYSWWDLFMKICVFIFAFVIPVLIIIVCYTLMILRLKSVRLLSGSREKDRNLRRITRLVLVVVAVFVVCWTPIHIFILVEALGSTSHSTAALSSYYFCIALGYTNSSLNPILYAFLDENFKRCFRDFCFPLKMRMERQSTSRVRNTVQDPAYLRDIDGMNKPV

What follows are molecules tested against Kappa-type opioid receptor (Homo sapiens) (UniProt P41145) (assay: KOR agonists, beta-arrestin recruitment, primary screen, cell-based, luminescence, uHTS (AID 1777)). Conditions: at 10 µM, stronger effect = higher value.

| Structure (SMILES) | activation |
| --- | --- |
| O=C(Cn1c(-c2ccccn2)nc2ccccc21)N/N=C/c1ccccn1 | inactive: -3.6% |
| O=C(Cn1c(NCCO)nc2ccccc21)NCC1CCCO1 (configuration not stated) | inactive: -0.6% |
| O=C(Cn1c(S(=O)(=O)Cc2ccccc2)nc2ccccc21)N1CCCCC1 | inactive: 1.3% |
| COCCN1CCn2c(nc3cc(NC(=O)c4cccs4)ccc32)C1 | inactive: -2.1% |
| COc1cc(C2NCCC3(OCCO3)C2(C)C)cc(OC)c1OC (configuration not stated) | inactive: -1.3% |
| Cn1c(=O)n(CC(N)=O)c2ccccc21 | inactive: 2.9% |
| CCN(CC)CCn1c(NC(=O)c2ccc(Cl)cc2)nc2ccccc21 | inactive: 45.7% |
| CC1CCC2C(=O)N(c3ccc(NC4CCN(Cc5ccccc5)CC4)c([N+](=O)[O-])c3)C(=O)C2C1 (configuration not stated) | inactive: -0.1% |
| CCCC(=O)Nc1nnc(/C=C/c2ccc(OC)cc2)s1 | inactive: 3.1% |
| Cc1ccc2c(c1)C1CN(C)CCC1N2C(=S)Nc1ccc(OC(F)F)cc1 (configuration not stated) | inactive: -2.8% |
| CC(=O)Nc1nc2ccccc2n1CCN(C)C | inactive: 0.4% |
| c1ccc2c(c1)nc1n2CCN1 | inactive: -2.4% |
| Cc1ccc(S(=O)(=O)c2nnn3c2nc(NC2CCN(Cc4ccccc4)CC2)c2ccccc23)cc1C | inactive: 0.3% |
| CCN(CC)CCn1cnc2c1c(=O)[nH]c(=O)n2Cc1ccccc1 | inactive: -1.7% |
| CN1CCC(N(C)c2nc(-c3ccccc3)nc3ccccc23)CC1 | inactive: -0.2% |
| C[C@H](NC(=O)N1CCn2c1nc1ccccc12)C(=O)NCC1CCCO1 (some centres not stated) | inactive: 0.7% |
| CCC(=O)Nc1ccc(NC(=S)NC(=O)/C=C/c2ccco2)cc1 | inactive: -4.6% |
| c1ccc(Cn2c(CNc3nc4ccccc4n3CCN3CCCCC3)nc3ccccc32)cc1 | inactive: 2.4% |
| CN1CCN(C(=O)Cn2c(C(F)(F)F)nc3ccccc32)CC1 | inactive: -3.1% |
| O=C(OC1CN2CCC1CC2)c1ccc(Cl)cc1 (configuration not stated) | inactive: 1.2% |
| Cn1cccc1/C=N/NC(=O)Cn1cnc2ccccc21 | inactive: 19.3% |
| CS(=O)(=O)c1ccc(Cl)c(NC(=O)COC(=O)C(O)(c2ccccc2)c2ccccc2)c1 | inactive: 0.5% |
| Cn1c(=O)c2c(ncn2CC(=O)Nc2cccc(S(=O)(=O)Nc3ccccc3F)c2)n(C)c1=O | inactive: -0.1% |
| C(=N\c1nc2ccccc2n1CCN1CCOCC1)/c1cccs1 | inactive: 2.5% |
| Cc1nc2cc(C(F)(F)F)ccc2n1CCNc1nc(-c2ccc([N+](=O)[O-])c(Cl)c2)cs1 | inactive: -0.9% |

| Structure (SMILES) | activation |
| --- | --- |
| CC(C)C(NS(=O)(=O)c1cccc2nsnc12)C(=O)N1CCn2c1nc1ccccc12 (configuration not stated) | inactive: -1.1% |
| OCCNc1nc2ccccc2n1CCN1CCCCC1 | inactive: -5.4% |
| Cc1nc2ccccc2n1CC(=O)NCCN1CCOCC1 | inactive: 7.2% |
| O=[As](O)(O)c1cccnc1 | inactive: 3.5% |
| Cn1c(=O)c2c(ncn2CC(=O)N2CCCCCC2)n(C)c1=O | inactive: -0.2% |
| CN(C)C(=O)Cn1c(=O)n(C)c2ccccc21 | inactive: -1.4% |
| O=C(Cn1cnc2ccccc21)N/N=C/c1cccnc1 | inactive: 0.2% |
| CCOC(=O)C1=C(C)N=C2SCCC(=O)N2[C@@H]1/C=C/c1ccccc1 | inactive: -1.6% |
| O=C(Cn1c(-c2cncs2)nc2ccccc21)NC1CCCC1 | inactive: -5.3% |
| CCN(CC)CCn1c(NCc2cc(OC)ccc2OC)nc2ccccc21 | inactive: -0.8% |
| O=C(Cn1c(CO)nc2ccccc21)NC1CCCCCC1 | inactive: -2.6% |
| N#CCC(=O)N1CCn2c1nc1ccccc12 | inactive: -3.4% |
| CCOC(=O)CSc1nc2ccccc2n1CC(=O)NC(C)(C)C | inactive: -0.1% |
| Cc1c(Cl)c(C(=O)Nc2nc3ccccc3n2CCN2CCCCC2)nn1C | inactive: -0.5% |
| O=[As](O)(c1cccc(O)c1)c1cccc(O)c1 | inactive: 3.9% |
| Cn1c(=O)c2c(ncn2CCN(CCO)Cc2ccccc2)n(C)c1=O | inactive: 18.7% |
| C=CCOC(=O)C1=C(C)N=C2SCCC(=O)N2C1/C=C/c1ccccc1 (configuration not stated) | inactive: 2.5% |
| COc1ccc(CNc2nc3ccccc3n2CCN2CCOCC2)cc1 | inactive: -2.1% |
| Cc1cccc(OCC(=O)OC2CN3CCC2CC3)c1 (configuration not stated) | inactive: -7.6% |
| CC(C)c1ccccc1NC(=O)Cn1c(/C=C/c2ccccc2)nc2ccccc21 | inactive: 5.1% |
| CCc1ccc(NC(=O)Cn2c3[n+](c4c(F)c(F)ccc42)CCCCC3)cc1 | inactive: 2.4% |
| CC(C)(C)NC(=O)Cn1c(-c2nonc2N)nc2ccccc21 | inactive: 0.9% |
| O=[N+]([O-])c1ccc2c(c1)nc1n2CCN(C2CCCCC2)C1 | inactive: -4.8% |
| COC(=O)Cn1c(=N)n(CCN2CCCCC2)c2ccccc21 | inactive: 1.6% |
| Cn1c(=O)c2ncn(CC(=O)NCCOc3ccccc3)c2n(C)c1=O | inactive: -1.5% |

| Structure (SMILES) | activation |
| --- | --- |
| CC(C(=O)Nc1ccccc1C(=O)O)n1c(C(F)(F)F)nc2ccccc21 (configuration not stated) | inactive: -0.1% |
| Cn1c(=O)c2c(ncn2CC(=O)N(Cc2ccccc2)c2ccccn2)n(C)c1=O | inactive: -2.4% |
| O=C(Nc1nc2ccccc2n1CCN1CCCC1)C1CCCCC1 | inactive: 3.2% |
| CCN(CC)CCn1c(NCc2ccc(C)o2)nc2ccccc21 | inactive: 3.6% |
| CCC(C)NC(=O)Cn1c(COc2ccc(Cl)cc2Cl)nc2ccccc21 (configuration not stated) | inactive: 1.8% |
| COc1ccc(N2CCn3c2nc2c3c(=O)n(CCN3CCOCC3)c(=O)n2C)cc1 | inactive: -2.3% |
| CCC(C)[C@H](NC(=O)N1CCn2c1nc1ccccc12)C(=O)NCc1ccc(OC)cc1 (some centres not stated) | inactive: -2.1% |
| Cn1c(=O)[nH]c(=O)c2c1ncn2CCN1CCOCC1 | inactive: -6.3% |
| CCOC(=O)C1=C(Cn2cnc3ccccc32)NC(=O)NC1c1ccc(OC)cc1 (configuration not stated) | inactive: -0.3% |
| CC(=O)Nc1nc2ccccc2n1CCN1CCOCC1 | inactive: -1.3% |
| Cc1nc2ccccc2n1C1CC(=O)N(N(C)C)C1=O (configuration not stated) | inactive: -1% |
| Cc1cccc(C)c1NC(=O)Cn1cnc2c(=O)n(C)c(=O)n(C)c21 | inactive: 7.3% |
| CC(=O)OCCNC(=O)Cn1cnc2c1c(=O)n(C)c(=O)n2C | inactive: -2.4% |
| CCCCNC(=O)Cn1c(=O)n(C)c2ccccc21 | inactive: 0.7% |
| O=C(Cn1cnc2ccccc21)N/N=C/c1cccc([N+](=O)[O-])c1 | inactive: 0.7% |
| NC(=O)Nc1ccc([As](=O)(O)O)cc1 | inactive: 2.1% |
| CC1Cc2ccccc2N1C(=O)CSc1nc2ccccc2n1CC(=O)N1CCOCC1 (configuration not stated) | inactive: -0.8% |
| CC(C)NC(=S)N1CCn2c(nc3ccccc32)C1 | inactive: 2.6% |
| Nc1nc2ccccc2n1CCN1CCCC1 | inactive: -1.5% |
| O=C(CCCCCNC(=O)N1CCn2c1nc1ccccc12)NCc1ccc(Cl)cc1 | inactive: -6.1% |
| Cc1nn2c3ccccc3n(CCN3CCCCC3)c2nc1=O | inactive: 5.6% |
| FC(F)(F)c1ccc2c(c1)ncn2C1CCN(Cc2nnnn2C2CCCCC2)CC1 | inactive: -3.4% |
| CCOP1(=S)c2c(C)nn(CCC#N)c2N=C(c2ccc(F)cc2)N1C (configuration not stated) | inactive: -4.4% |
| Cn1c(=O)c2c(nc(CN3CCN(c4ccccc4F)CC3)n2CCN2CCOCC2)n(C)c1=O | inactive: -3.3% |
| Fc1ccc2c(c1)nnn2C1CCN(Cc2c(Cl)cccc2Cl)CC1 | inactive: -5.5% |

| Structure (SMILES) | activation |
| --- | --- |
| CC(C)[C@H](NC(=O)N1CCn2c1nc1ccccc12)C(=O)NCc1ccco1 | inactive: -4.8% |
| COc1ccc(CNC(=O)[C@H](CCSC)NC(=O)N2CCn3c2nc2ccccc23)cc1 | inactive: -3.4% |
| CCOC(=O)c1ccc(N2C(=O)CC(N3CCC(Nc4ccc(F)cc4)CC3)C2=O)cc1 (configuration not stated) | inactive: -6.3% |
| O=C(Cn1cnc2ccccc21)N/N=C/c1ccccc1[N+](=O)[O-] | inactive: 5.8% |
| O=C(CSc1nc2ccccc2n1CC(=O)N1CCCC1)Nc1nccs1 | inactive: -3.3% |
| O=C(Nc1ccccc1)N1CCn2c1nc1ccccc12 | inactive: -4% |
| CCc1cccc(C)c1NC(=O)Cn1c(NCCO)nc2ccccc21 | inactive: -0.6% |
| Cc1ccc2c(c1)C1CN(C)CCC1N2C(=S)NC(=O)c1ccc(Br)cc1 (configuration not stated) | inactive: -7.1% |
| O=[N+]([O-])c1ccc2c(c1)nnn2O | inactive: 4.2% |
| O=P(Nc1nccs1)(c1ccccc1)c1nc2ccccc2s1 (configuration not stated) | inactive: -0.5% |
| Cn1c(=O)c2c(ncn2CC(=O)N2CCN(S(=O)(=O)c3ccc(Cl)cc3)CC2)n(C)c1=O | inactive: -0.1% |
| CCN(CC)CCn1c(C)nc2ccccc21 | inactive: 6% |
| Cc1ccccc1NC(=O)Cn1c(NCC(C)O)nc2ccccc21 (configuration not stated) | inactive: 1.7% |
| O=P(Nc1nccs1)(Oc1ccccc1)Oc1ccccc1 | inactive: 0.4% |
| CCc1nc2ccccc2n1CC(=O)Nc1cc(C)on1 | inactive: 0.8% |
| CC(C)c1ccc(NC(=O)C2CC(=O)Nc3nc4ccccc4n32)cc1 (configuration not stated) | inactive: 5.3% |
| N#Cc1ccc(NC(=O)Cn2c3[n+](c4ccc(C(F)(F)F)cc42)CCCCC3)cc1 | inactive: -0.7% |
| O=C(Nc1nc2ccccc2n1CCN1CCOCC1)c1ccc(Cn2cc([N+](=O)[O-])cn2)o1 | inactive: 6.6% |
| CCC(C)[C@H](NC(=O)N1CCn2c1nc1ccccc12)C(=O)NCCc1ccc(OC)c(OC)c1 (some centres not stated) | inactive: 0.6% |
| Cn1c(=O)n(CC(=O)Nc2ccc(F)cc2)c2ccccc21 | inactive: -3.4% |
| CC(C)N(C(=O)Cn1c(SCC(=O)N2CCN(c3ccccc3)CC2)nc2ccccc21)C(C)C | inactive: 0.3% |
| CCOC(=O)c1cccc(NC(=O)Cn2c(CC(=O)N3CCCC3)nc3ccccc32)c1 | inactive: -4.3% |
